Patent publication US9956214B2, “5-aminopyrazole-4-carboxamide inhibitors of CDPK1 from T. gondii and C. parvum” (UNIVERSITY OF WASHINGTON THROUGH ITS CENTER FOR …, priority 2013, dated 2018)

Protein sequences, listed by entry. Tags and fused reporters are not part of them. Residues count along the entry.
UniProt Q9UM73, 19-1620, species assumed: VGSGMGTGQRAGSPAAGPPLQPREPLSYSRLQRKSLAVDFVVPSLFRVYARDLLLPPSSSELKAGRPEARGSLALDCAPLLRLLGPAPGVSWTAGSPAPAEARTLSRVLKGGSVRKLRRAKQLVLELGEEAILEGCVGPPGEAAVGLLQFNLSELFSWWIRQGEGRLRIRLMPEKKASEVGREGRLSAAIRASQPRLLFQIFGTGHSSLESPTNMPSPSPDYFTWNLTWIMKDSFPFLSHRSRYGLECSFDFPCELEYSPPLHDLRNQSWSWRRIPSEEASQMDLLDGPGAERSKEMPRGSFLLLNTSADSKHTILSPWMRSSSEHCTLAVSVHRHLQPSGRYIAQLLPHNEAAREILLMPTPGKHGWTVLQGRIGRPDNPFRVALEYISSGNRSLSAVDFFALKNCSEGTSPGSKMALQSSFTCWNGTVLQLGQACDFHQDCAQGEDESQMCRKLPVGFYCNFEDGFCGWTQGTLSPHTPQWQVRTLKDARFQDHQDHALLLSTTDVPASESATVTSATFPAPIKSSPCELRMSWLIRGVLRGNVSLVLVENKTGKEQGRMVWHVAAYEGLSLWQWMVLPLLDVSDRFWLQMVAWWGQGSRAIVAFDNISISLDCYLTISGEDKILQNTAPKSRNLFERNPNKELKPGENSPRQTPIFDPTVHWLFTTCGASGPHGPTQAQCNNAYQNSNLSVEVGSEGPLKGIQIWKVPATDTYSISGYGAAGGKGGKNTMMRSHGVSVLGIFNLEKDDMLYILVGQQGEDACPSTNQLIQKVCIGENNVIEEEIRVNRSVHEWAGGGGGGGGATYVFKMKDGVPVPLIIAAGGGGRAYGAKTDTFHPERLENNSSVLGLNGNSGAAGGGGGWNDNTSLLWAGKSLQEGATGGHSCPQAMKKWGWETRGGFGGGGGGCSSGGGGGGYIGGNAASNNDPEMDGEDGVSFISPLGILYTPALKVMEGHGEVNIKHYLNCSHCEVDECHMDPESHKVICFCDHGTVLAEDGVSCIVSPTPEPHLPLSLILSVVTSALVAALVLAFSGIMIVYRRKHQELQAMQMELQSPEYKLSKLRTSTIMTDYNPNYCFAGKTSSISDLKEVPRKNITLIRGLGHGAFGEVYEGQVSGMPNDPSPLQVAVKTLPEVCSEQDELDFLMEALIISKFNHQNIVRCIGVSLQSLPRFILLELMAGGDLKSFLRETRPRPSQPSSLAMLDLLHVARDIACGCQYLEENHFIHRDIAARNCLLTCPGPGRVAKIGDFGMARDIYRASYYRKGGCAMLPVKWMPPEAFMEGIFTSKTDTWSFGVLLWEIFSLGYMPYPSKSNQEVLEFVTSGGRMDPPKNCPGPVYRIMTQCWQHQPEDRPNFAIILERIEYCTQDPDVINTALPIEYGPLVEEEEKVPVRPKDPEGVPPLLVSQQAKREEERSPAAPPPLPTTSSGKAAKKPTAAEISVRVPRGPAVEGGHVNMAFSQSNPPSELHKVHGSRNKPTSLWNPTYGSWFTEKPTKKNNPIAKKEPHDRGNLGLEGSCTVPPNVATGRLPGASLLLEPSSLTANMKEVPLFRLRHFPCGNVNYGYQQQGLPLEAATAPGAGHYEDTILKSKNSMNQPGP
UniProt P28482, whole entry, looked up, species assumed: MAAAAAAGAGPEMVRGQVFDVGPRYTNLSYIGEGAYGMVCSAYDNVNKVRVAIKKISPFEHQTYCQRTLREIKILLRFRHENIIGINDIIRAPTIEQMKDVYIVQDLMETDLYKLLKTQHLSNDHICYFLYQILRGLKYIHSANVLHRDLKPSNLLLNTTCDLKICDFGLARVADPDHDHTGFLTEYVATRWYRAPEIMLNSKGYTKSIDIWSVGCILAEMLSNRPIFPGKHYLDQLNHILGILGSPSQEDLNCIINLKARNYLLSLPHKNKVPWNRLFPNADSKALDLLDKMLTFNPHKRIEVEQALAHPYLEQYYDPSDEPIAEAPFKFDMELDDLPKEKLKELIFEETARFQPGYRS

Columns and labels:
[1] = target: ALK (Homo sapiens (Human), UniProt Q9UM73); assay: Kinase panel selectivity: ALK
[2] = target: Erk2 (Homo sapiens (Human), UniProt P28482); assay: Kinase panel selectivity: Erk2

SMILES: CCOc1ccc2cc(-c3nn(C(C)(C)C)c(N)c3C(N)=O)cnc2c1 [Compound 39, 5-amino-1-(tert-butyl)-3-(7-ethoxyquinolin-3-yl)-1H-pyrazole-4-carboxamide]
- ALK pKi [1]: 5.24
- Erk2 pKi [2]: 5.18
